# Source: patent publication US5444151A, “Platelet derived growth factor antagonists” (Ludwig Institute for Cancer Research, priority 1992, dated 1995)
# Target: PDGF-β receptor (Homo sapiens, UniProt P09619)
# Test: β-receptor autophosphorylation and dimerization in PAE cells
# Assay type: cell-based
# Set-up: expressed in transfected cells; host or cells: PAE cells
# Conditions: conditioned media, 90 minutes at 4° C., BS3 crosslinking
# Protocol: It was important to determine whether the binding of monomeric PDGF to PDGF receptors induced agonistic or antagonistic effects. The PDGF-mono B molecule was therefore tested for its ability to activate β-receptor in an autophosphorylation assay. Conditioned media from cultures of COS cells transfected with pSV B stop, pSV monoB or from mock transfected cells were desalted and concentrated as described supra. A radio receptor assay was carried out to determine receptor binding activity, using standard techniques. Once this was accomplished, media from pSV monoB or pSV monoB stop transfected cells were adjusted with mock transfected medium to receptor binding activity of 100 ng/ml. PAE cells expressing PDGF B receptors (Westermark et al., Proc Natl. Acad. Sci. USA 87: 128-132 (1990)), grown in 25 cm^2 dishes were labeled in serum and methionine free MCDB 104 medium supplemented with 0.1 mg/ml BSA and 0.1 ml [^35 S] methionine/ml for three hours at 37° C. Cells were stimulated with 1 ml of different concentrations of conditioned media for 30 minutes at 4° C. A positive control was set up using 1 ml of mock transfected medium with 100 ng/ml of recombinant PDGF-BB. […] Immunocomplexes were analyzed by SDS-gel electrophoresis, using a 7% acrylamide gel and fluorography. […]
substance,measurement,value
PDGF-BB: platelet derived growth factor B chain homodimer,Dimerization of the β receptor (in words),caused dimerization
